We go through 14 compounds from ChEMBL document CHEMBL4270596, “Discovery of a potent non-oxime reactivator of nerve agent inhibited human acetylcholinesterase” (2018).

The chains behind the UniProt entries cited, without tags or fusion partners. Where a name states a change or a piece, a line headed by the entry shows the natural chain unless it says otherwise.
UniProt P22303: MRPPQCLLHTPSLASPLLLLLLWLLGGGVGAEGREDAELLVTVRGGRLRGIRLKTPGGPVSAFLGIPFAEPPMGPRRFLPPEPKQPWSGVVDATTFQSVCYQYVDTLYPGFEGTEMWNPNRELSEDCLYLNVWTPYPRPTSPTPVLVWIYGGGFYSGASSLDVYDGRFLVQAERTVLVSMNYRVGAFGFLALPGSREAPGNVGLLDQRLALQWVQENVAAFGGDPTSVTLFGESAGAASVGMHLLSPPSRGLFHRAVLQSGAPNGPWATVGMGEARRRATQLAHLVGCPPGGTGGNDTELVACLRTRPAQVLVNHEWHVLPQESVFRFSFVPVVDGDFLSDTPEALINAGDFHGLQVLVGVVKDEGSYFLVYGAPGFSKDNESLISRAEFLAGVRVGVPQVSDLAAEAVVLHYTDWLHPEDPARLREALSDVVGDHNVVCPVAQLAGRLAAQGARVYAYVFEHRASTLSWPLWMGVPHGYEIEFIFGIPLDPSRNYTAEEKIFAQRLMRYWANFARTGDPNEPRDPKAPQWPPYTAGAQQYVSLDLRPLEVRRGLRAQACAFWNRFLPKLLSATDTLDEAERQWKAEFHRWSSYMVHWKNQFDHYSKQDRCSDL

Active and inactive are the calls of the source. The rule behind the calls is not given here.

In assay [1] the target is Acetylcholinesterase (Homo sapiens) (UniProt P22303). The assay is described as follows: Reactivation of VX-induced inhibition of AChE in human erythrocyte membranes at 1000 uM using acetylthiocholine as substrate measured after 20 mins by Ellman's method. (In Ellman's method for cholinesterases, released thiocholine reacts with DTNB.)
Assay [2] shares this target. Kind of assay: Reactivation of PXE-induced inhibition of AChE in human erythrocyte membranes at 1000 uM using acetylthiocholine as substrate measured after 20 mins by Ellman's method.
Assay [3] shares this target. The assay is described as follows: Reactivation of VX-induced inhibition of AChE in human erythrocyte membranes at 10 to 1000 uM using acetylthiocholine as substrate measured after 2 to 60 mins by Ellman's method.
For assay [4] the target is unchanged. Kind of assay: Reactivation of GB-induced inhibition of AChE in human erythrocyte membranes at 10 to 1000 uM using acetylthiocholine as substrate measured after 2 to 60 mins by Ellman's method.
For assay [5] the target is unchanged. The assay is described as follows: Reactivation of GF-induced inhibition of AChE in human erythrocyte membranes at 10 to 1000 uM using acetylthiocholine as substrate measured after 2 to 60 mins by Ellman's method.
Assay [6] has the same target. The assay is described as follows: Reactivation of GA-induced inhibition of AChE in human erythrocyte membranes at 10 to 1000 uM using acetylthiocholine as substrate measured after 2 to 60 mins by Ellman's method.
The target is the same in assay [7]. The assay is described as follows: Reactivation of PXE-induced inhibition of AChE in human erythrocyte membranes at 10 to 1000 uM using acetylthiocholine as substrate measured after 2 to 60 mins by Ellman's method.
Assay [8] shares this target. Kind of assay: Reactivation of VX-induced inhibition of AChE in human erythrocyte membranes at 1000 uM using acetylthiocholine as substrate measured after 60 mins by Ellman's method relative to control. The arrangement: scale not given: the % may be the effect or the level left.
For assay [9] the target is unchanged. The assay is described as follows: Reactivation of GB-induced inhibition of AChE in human erythrocyte membranes at 1000 uM using acetylthiocholine as substrate measured after 60 mins by Ellman's method relative to control. Further details: scale not given: the % may be the effect or the level left.
Assay [10] shares this target. Kind of assay: Reactivation of GF-induced inhibition of AChE in human erythrocyte membranes at 1000 uM using acetylthiocholine as substrate measured after 60 mins by Ellman's method relative to control. The arrangement: scale not given: the % may be the effect or the level left.
The target is the same in assay [11]. The assay is described as follows: Reactivation of PXE-induced inhibition of AChE in human erythrocyte membranes at 1000 uM using acetylthiocholine as substrate measured after 60 mins by Ellman's method relative to control. Further details: scale not given: the % may be the effect or the level left.
Assay [12] has the same target. The assay is described as follows: Reactivation of VX-induced inhibition of AChE in human erythrocyte membranes at 10 uM using acetylthiocholine as substrate measured after 60 mins by Ellman's method relative to control. The arrangement: scale not given: the % may be the effect or the level left.
The target is the same in assay [13]. The assay is described as follows: Reactivation of GB-induced inhibition of AChE in human erythrocyte membranes at 10 uM using acetylthiocholine as substrate measured after 60 mins by Ellman's method relative to control. The arrangement: scale not given: the % may be the effect or the level left.
Assay [14] has the same target. The assay is described as follows: Reactivation of GF-induced inhibition of AChE in human erythrocyte membranes at 10 uM using acetylthiocholine as substrate measured after 60 mins by Ellman's method relative to control. The arrangement: scale not given: the % may be the effect or the level left.
For assay [15] the target is unchanged. The assay is described as follows: Reactivation of PXE-induced inhibition of AChE in human erythrocyte membranes at 10 uM using acetylthiocholine as substrate measured after 60 mins by Ellman's method relative to control. The arrangement: scale not given: the % may be the effect or the level left.
Assay [16] shares this target. Kind of assay: Reactivation of VX-induced inhibition of AChE in human erythrocyte membranes assessed as pseudo first-order rate constant at 10 uM using acetylthiocholine as substrate measured after 2 to 60 mins by Ellman's method.
Assay [17] shares this target. The assay is described as follows: Reactivation of GB-induced inhibition of AChE in human erythrocyte membranes assessed as pseudo first-order rate constant at 10 uM using acetylthiocholine as substrate measured after 2 to 60 mins by Ellman's method.
Assay [18] has the same target. Kind of assay: Reactivation of GF-induced inhibition of AChE in human erythrocyte membranes assessed as pseudo first-order rate constant at 10 uM using acetylthiocholine as substrate measured after 2 to 60 mins by Ellman's method.
The target is the same in assay [19]. Kind of assay: Reactivation of GA-induced inhibition of AChE in human erythrocyte membranes assessed as pseudo first-order rate constant at 10 uM using acetylthiocholine as substrate measured after 2 to 60 mins by Ellman's method.
Assay [20] has the same target. Kind of assay: Reactivation of PXE-induced inhibition of AChE in human erythrocyte membranes assessed as pseudo first-order rate constant at 10 uM using acetylthiocholine as substrate measured after 2 to 60 mins by Ellman's method.
Assay [21] shares this target. Kind of assay: Reactivation of VX-induced inhibition of AChE in human erythrocyte membranes assessed as pseudo first-order rate constant at 100 uM using acetylthiocholine as substrate measured after 2 to 60 mins by Ellman's method.
Assay [22] shares this target. Kind of assay: Reactivation of GB-induced inhibition of AChE in human erythrocyte membranes assessed as pseudo first-order rate constant at 100 uM using acetylthiocholine as substrate measured after 2 to 60 mins by Ellman's method.
Assay [23] has the same target. Kind of assay: Reactivation of GF-induced inhibition of AChE in human erythrocyte membranes assessed as pseudo first-order rate constant at 100 uM using acetylthiocholine as substrate measured after 2 to 60 mins by Ellman's method.
Assay [24] shares this target. The assay is described as follows: Reactivation of GA-induced inhibition of AChE in human erythrocyte membranes assessed as pseudo first-order rate constant at 100 uM using acetylthiocholine as substrate measured after 2 to 60 mins by Ellman's method.
Assay [25] shares this target. The assay is described as follows: Reactivation of PXE-induced inhibition of AChE in human erythrocyte membranes assessed as pseudo first-order rate constant at 100 uM using acetylthiocholine as substrate measured after 2 to 60 mins by Ellman's method.
Assay [26] shares this target. The assay is described as follows: Reactivation of VX-induced inhibition of AChE in human erythrocyte membranes assessed as residual activity at 10 uM using acetylthiocholine as substrate measured within 20 mins by Ellman's method relative to control.
Assay [27] shares this target. The assay is described as follows: Reactivation of VX-induced inhibition of AChE in human erythrocyte membranes assessed as residual activity at 100 uM using acetylthiocholine as substrate measured within 10 mins by Ellman's method relative to control.

As to `Nc1ccc(O)c(CN2CCCCC2)c1`, the result in [1] and in assay [2] was Active. Also, the outcome in assay [3], in assay [4], in [5], in assay [6] and in [7] was inactive.
Consider `Nc1ccc(O)c(Cn2ccnc2)c1`, for which the result in assay [1] and in assay [2] was Active. Also, in assay [6], the outcome was inactive. Besides, the Activity in assay [8] was 40 to 100%; in assay [9] it was 40 to 100%; in assay [10], 40 to 100%; in [11], less than 100%.
For `CNCc1cc(N)ccc1O`, the result in assay [3], in assay [4], in [5] and in assay [7] was Active. Moreover, the result in assay [6] was inactive.
In the case of `CCCCN(C)Cc1cc(N)ccc1O`, the outcome in [1], in assay [2], in assay [3], in assay [4], in [5] and in assay [7] was Active. In addition, the result in assay [6] was inactive.
In the case of `CN(C)Cc1cc(N)ccc1O`, the outcome in [1], in assay [2], in [3], in assay [4], in assay [5] and in assay [7] was Active. In assay [6], the result was inactive.
On to `CCN(CC)Cc1cc(N)ccc1O`, for which the result in assay [6] was inactive. In addition, the Activity in assay [12], in [13], in [14] and in [15] was less than 25% each time. The K in assay [16] worked out at 0.01 min⁻¹; in assay [17] it was 0.002 min⁻¹; in assay [18], 0.001 min⁻¹; in assay [20], 0.01 min⁻¹; in assay [21] it was 0.047 min⁻¹; in [22], 0.008 min⁻¹. Further, the K in [23] amounted to 0.03 min⁻¹; in assay [25], 0.114 min⁻¹. Besides, the K entry in [19] and in assay [24] was “inactive” each time.
In the case of `CCCCCCN(C)Cc1cc(N)ccc1O`, the outcome in assay [3], in assay [4], in assay [5] and in assay [7] was Active. Further, the outcome in assay [6] was inactive.
In the case of `CCCN(C)Cc1cc(N)ccc1O`, the outcome in [3], in [4], in assay [5] and in assay [7] was Active. The outcome in assay [6] was inactive.
Turning to `CCCN(CCC)Cc1cc(N)ccc1O`, the result in assay [1] and in assay [2] was Active. For the same compound, in assay [6], the outcome was inactive.
For `CCN(C)Cc1cc(N)ccc1O`, the result in assay [1], in [2], in assay [3], in assay [4], in assay [5] and in [7] was Active. Moreover, the result in assay [6] was inactive.
With `CCCCCN(C)Cc1cc(N)ccc1O`, the result in [3], in [4], in [5] and in [7] was Active. Besides, the outcome in assay [6] was inactive.
On to `Nc1ccc(O)c(Cn2cccn2)c1`, for which, in assay [6], the outcome was inactive.
As for `Nc1ccc(O)c(CN2CCOCC2)c1`, the outcome in assay [3], in assay [4], in assay [5], in assay [6] and in assay [7] was inactive.
As to `Nc1ccc(O)c(CN2CCCC2)c1`, the result in assay [3], in [4], in assay [5] and in [7] was Active. The result in assay [6] was inactive. The Activity in assay [12] was 50 to 100%; in assay [13] it was 50 to 100%; in assay [14] it was 50 to 100%; in assay [15], 50 to 100%; in assay [26], 100%; in [27], 100%. In addition, the K in [16] came to 0.02 min⁻¹; in assay [17] it was 0.025 min⁻¹; in assay [18], 0.025 min⁻¹; in assay [20], 0.19 min⁻¹; in assay [21] it was 0.245 min⁻¹; in assay [22], 0.205 min⁻¹. The K in assay [23] amounted to 0.174 min⁻¹; in [25], 0.581 min⁻¹. The K entry in assay [19] and in [24] was “inactive” throughout.
